Laboratory results as given in ChEMBL document CHEMBL2424579, “Quinazolin-4-one derivatives as selective histone deacetylase-6 inhibitors for the treatment of Alzheimer's disease” (J Med Chem, 2013).

Key:
[1] = organism: Homo sapiens; assay: Selectivity index, ratio of IC50 for human recombinant HDAC11 to IC50 for human recombinant HDAC6
[2] = tested on: PC-12; assay: Inhibition of HDAC6 in rat PC12 cells assessed as induction of alpha-tubulin acetylation after 48 hrs by Western blotting analysis relative to control; format: cell-based

CCc1nc2cc(F)c(/C=C/C(=O)NO)cc2c(=O)n1CCc1ccccc1
Ratio IC50 [1]: 585 | fold change (FC) [2]: 3

CCc1nc2cc(/C=C/C(=O)NO)ccc2c(=O)n1CCc1ccccc1
Ratio IC50 [1]: 268
